Key:
human AChE = human AChE (Homo sapiens, UniProt P22303); assay: Cholinesterase inhibition colorimetric test with AChE, ATCI and DTNB; conditions: DTNB; substrate ATCI; Enzyme/Agent Time 0.5
[1] = molecular target: equine butyrylcholinesterase (BChE) (Equus caballus, UniProt P81908); assay: Enzymatic colorimetric test, Phenol Red pH indicator, BCI substrate; conditions: Enzyme/Agent Time 0.5

Chains of the proteins cited; added tags and fusions are not shown. Residues count along the entry.
UniProt P22303, 32-614 limits assumed: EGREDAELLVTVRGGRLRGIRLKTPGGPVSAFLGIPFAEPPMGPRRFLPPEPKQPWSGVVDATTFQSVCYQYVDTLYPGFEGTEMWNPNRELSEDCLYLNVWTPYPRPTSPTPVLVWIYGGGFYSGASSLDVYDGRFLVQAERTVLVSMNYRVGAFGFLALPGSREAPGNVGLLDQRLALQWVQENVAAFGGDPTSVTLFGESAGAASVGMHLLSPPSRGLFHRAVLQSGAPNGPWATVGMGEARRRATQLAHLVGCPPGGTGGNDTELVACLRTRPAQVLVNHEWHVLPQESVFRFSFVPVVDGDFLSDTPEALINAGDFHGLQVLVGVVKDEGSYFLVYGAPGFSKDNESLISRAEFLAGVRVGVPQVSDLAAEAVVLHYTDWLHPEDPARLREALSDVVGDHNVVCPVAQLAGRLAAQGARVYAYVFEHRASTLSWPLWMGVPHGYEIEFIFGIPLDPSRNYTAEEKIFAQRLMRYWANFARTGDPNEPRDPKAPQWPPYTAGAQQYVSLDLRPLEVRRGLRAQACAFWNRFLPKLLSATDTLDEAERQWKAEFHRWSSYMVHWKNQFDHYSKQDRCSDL
UniProt P81908, whole entry: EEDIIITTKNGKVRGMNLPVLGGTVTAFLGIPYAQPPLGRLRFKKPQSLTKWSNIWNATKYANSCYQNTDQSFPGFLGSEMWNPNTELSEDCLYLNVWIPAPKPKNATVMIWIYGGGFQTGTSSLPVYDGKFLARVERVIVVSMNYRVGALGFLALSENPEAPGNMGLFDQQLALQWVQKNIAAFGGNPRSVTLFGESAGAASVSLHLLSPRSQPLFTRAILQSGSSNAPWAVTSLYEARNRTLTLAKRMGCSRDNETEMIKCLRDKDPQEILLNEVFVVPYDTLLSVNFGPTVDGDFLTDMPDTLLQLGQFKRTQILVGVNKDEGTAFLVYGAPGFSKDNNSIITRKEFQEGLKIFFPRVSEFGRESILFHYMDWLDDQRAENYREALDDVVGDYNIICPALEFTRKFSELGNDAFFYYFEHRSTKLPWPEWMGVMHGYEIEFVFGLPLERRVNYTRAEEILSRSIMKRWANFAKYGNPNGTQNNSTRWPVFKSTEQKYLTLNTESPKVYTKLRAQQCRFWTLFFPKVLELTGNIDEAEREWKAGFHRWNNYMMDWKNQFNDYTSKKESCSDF

| Compound | Amount Detected (human AChE) | Amount Detected [1] |
| --- | --- | --- |
| COP(N)(=O)SC (stereo not shown) | >100 ng | 290,000 ng |
| CCOP(=S)(OCC)Oc1ccc([N+](=O)[O-])cc1 | >100 ng | 500,000 ng |

Reference: patent publication US20110045517A1, “Toxic Material Detection Apparatus and Method” (published 2011)
